Results published in ChEMBL document CHEMBL2311444, “Synthesis of derivatives of the keto-pyrrolyl-difluorophenol scaffold: some structural aspects for aldose reductase inhibitory activity and selectivity” (Bioorg Med Chem, 2013).

Tests used:
[1] = molecular target: Aldo-keto reductase family 1 member A1 (Rattus norvegicus) (UniProt P51635); assay: Inhibition of Fischer-344 rat kidney ALR1 using D,L-glyceraldehyde as substrate at 10' -5 M by spectrophotometry
Rattus norvegicus = organism: Rattus norvegicus; assay: Selectivity index, ratio of IC50 for Fischer-344 rat kidney ALR1 to IC50 for Fischer-344 rat lens ALR2; type: tissue-based; conditions: Lens of camera-type eye
How it was run: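 Selectivity index calculated from the IC50 values of two spectrophotometric NADPH-consumption assays (340 nm). Rat kidney ALR1 was measured at 37 °C and rat lens ALR2 at 30 °C. Each IC50 was derived by least-squares fitting of triplicate five-concentration log(dose)–response data.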

inhibition [1]: 75.3%
SMILES: O=C(c1ccn(-c2cc(F)c(O)c(F)c2)c1)c1ccc(Br)cc1F
Ratio IC50 (Rattus norvegicus): 14.1
